Values quoted from earlier work in patent US12351561B2, “Crystalline (2S,4R)-5-(5'-chloro-2'-fluoro-[1,1'-biphenyl]-4-yl)-2-(ethoxymethyl)-4-(3-hydroxyisoxazole-5-carboxamido)-2-methylpentanoic acid and uses thereof” (THERAVANCE BIOPHARMA R&D IP, LLC, priority 2016, dated 2025).

The chains behind the UniProt entries cited, without tags or fusion partners. Where a name states a change or a piece, a line headed by the entry shows the natural chain unless it says otherwise.
UniProt P08473: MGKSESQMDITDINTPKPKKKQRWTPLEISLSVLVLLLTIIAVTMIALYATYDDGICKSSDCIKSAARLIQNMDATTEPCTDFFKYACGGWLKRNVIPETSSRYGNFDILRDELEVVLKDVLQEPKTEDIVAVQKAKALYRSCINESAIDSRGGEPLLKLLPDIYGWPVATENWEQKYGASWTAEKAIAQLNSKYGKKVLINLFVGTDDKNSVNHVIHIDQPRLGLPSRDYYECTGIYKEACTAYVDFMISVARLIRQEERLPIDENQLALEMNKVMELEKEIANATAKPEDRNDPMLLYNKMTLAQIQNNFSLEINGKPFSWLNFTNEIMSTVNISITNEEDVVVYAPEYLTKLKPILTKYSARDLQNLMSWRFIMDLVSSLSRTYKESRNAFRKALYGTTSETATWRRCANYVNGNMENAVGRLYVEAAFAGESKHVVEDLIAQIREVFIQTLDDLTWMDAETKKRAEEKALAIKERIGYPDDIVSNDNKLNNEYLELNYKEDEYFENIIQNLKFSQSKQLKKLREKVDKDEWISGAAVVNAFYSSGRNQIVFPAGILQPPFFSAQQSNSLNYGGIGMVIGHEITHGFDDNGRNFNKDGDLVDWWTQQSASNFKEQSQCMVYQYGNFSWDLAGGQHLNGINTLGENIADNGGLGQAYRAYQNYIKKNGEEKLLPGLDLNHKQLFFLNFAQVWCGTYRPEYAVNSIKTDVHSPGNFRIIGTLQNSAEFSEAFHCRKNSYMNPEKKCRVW

Target: NEP (Homo sapiens, UniProt P08473)
Conditions: cited from earlier work

Compound: CCOC(=O)[C@H](C)C[C@@H](Cc1ccc(-c2ccccc2)cc1)NC(=O)CCC(=O)O [sacubitril]
- level of cGMP (target engagement) at 24 h postdose: not elevated
